The numbers were not newly measured in article PMC3930474 (Journal of controlled release : official journal of the …, 2013), which cites them from elsewhere.

The conditions of the data set: mouse albumin in mouse; cited from earlier work.

Regarding “mouse albumin: mouse serum albumin, literature half-life comparison”, the plasma half-life was 1.2 days.
